Activity data for 1 compound are collected here from ChEMBL document CHEMBL6120995, “Orvinol-based opioid receptor antagonist fluorinated at C(20)-pharmacophore” (2025).

This data set can be described thus: Toxicity in male Swiss mouse assessed as effect on locomotor activity at 0.1 to 10 mg/kg, sc measured after 30 mins by tail-flick test. The following applies: in vivo, 0.5 h. For orientation: Thermal pain tests record how soon the animal reacts.

Turning to `C=CCN1CC[C@]23c4c5ccc(O)c4O[C@H]2[C@@]2(O)CC[C@@]3(C[C@@H]2[C@](C)(O)C(F)(F)F)[C@H]1C5`, the Activity result is listed as “Non-toxic”.
